According to publication PMC4503950, “EGCG reverses human neutrophil elastase-induced migration in A549 cells by directly binding to HNE and by regulating α1-AT” (Scientific Reports, 2015):

Target: T1, human neutrophil elastase (HNE) (Homo sapiens, UniProt P08246)
T1 sequence (P08246 30-247): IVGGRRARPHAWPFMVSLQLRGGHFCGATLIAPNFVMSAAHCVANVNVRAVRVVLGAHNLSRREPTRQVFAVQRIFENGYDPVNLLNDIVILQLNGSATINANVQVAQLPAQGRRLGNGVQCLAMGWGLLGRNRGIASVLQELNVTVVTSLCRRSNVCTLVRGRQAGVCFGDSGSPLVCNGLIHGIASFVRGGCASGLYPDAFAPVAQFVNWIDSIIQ
Experiment: HNE enzymatic activity assay, chromogenic p-NA substrate, absorbance at […] nm
Format: biochemical
Set-up: gene ELANE

## CC(C)(C)C(=O)Oc1ccc(S(=O)(=O)Nc2ccccc2C(=O)NCC(=O)O)cc1 [sivelestat sodium]
  IC50: 3.62 µM
